{"sequences": {"note": "Sequences of proteins named here, by UniProt entry; tags and fusion partners are left off.", "UniProt Q60612, whole entry": "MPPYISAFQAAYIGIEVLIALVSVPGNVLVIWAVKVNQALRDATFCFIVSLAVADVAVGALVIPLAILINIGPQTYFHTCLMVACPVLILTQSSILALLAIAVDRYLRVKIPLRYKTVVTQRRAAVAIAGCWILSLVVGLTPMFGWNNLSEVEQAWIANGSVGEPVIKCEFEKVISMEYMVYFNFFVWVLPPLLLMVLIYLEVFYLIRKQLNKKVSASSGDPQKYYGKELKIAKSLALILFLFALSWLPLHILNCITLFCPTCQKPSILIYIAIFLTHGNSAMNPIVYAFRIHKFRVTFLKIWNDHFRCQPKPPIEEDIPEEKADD", "UniProt P25099, whole entry": "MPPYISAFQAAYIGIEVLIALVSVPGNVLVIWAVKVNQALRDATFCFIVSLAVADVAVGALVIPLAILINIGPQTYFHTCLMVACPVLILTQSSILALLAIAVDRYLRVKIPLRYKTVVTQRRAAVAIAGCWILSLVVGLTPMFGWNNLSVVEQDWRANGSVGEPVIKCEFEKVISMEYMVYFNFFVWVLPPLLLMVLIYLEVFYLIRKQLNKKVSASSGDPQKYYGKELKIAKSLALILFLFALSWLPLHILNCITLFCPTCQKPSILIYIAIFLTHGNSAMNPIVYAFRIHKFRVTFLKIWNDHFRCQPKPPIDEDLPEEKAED"}, "source": "patent US20090136460A1", "about": "(VANDERBILT UNIVERSITY, priority 2007, published 2009)", "key": {"A1 receptors": {"target": "A1 receptors (Mus musculus, UniProt Q60612)", "assay": "Inhibition of forskolin-stimulated cAMP accumulation in mouse eEPCs", "conditions": "data from the current study (no reference); 95% CI in parentheses"}, "A2B receptors": {"target": "T1, A2B receptors (Mus musculus, UniProt Q60614)", "T1 sequence (Q60614 1-332)": "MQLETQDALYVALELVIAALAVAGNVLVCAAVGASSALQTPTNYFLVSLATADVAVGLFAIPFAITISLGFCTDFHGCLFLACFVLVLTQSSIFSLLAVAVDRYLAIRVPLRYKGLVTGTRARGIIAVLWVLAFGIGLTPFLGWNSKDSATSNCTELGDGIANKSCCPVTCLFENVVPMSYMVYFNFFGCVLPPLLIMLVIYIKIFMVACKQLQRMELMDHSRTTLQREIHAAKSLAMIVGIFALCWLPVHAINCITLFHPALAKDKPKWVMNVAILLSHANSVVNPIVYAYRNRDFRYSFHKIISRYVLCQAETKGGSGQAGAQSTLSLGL", "assay": "NECA-stimulated cAMP accumulation in MCEC-1 cells", "conditions": "data from the current study (no reference); 95% CI in parentheses"}, "A1 adenosine receptor": {"target": "A1 adenosine receptor (Rattus norvegicus, UniProt P25099)", "conditions": "cited from earlier work"}}}
{"smiles": "CCCn1c(=O)c2[nH]c(C3CCCC3)nc2n(CCC)c1=O", "note": "[DPCPX, 8-cyclopentyl-1,3-dipropylxanthine]", "values": [{"measurement": "Affinity or potency (Ki, KD, KB, IC50 or EC50) at A1, mouse (m), current study", "setting": "A1 receptors", "result": "1.5 (1.1-2.1) nmol/L"}]}
{"smiles": "CCNC(=O)[C@H]1O[C@@H](n2cnc3c(N)ncnc32)[C@H](O)[C@@H]1O", "note": "[NECA, 5′-N-ethylcarboxamidoadenosine]", "values": [{"measurement": "Affinity or potency (Ki, KD, KB, IC50 or EC50) at A2B, mouse (m), current study", "setting": "A2B receptors", "result": "449 (291-693) nmol/L"}]}
{"smiles": "CCNC(=O)[C@H]1O[C@@H](n2cnc3c(N)nc(NCCc4ccc(CCC(=O)O)cc4)nc32)[C@H](O)[C@@H]1O", "note": "[CGS21680, 4-((N-ethyl-5′-carbamoyladenos-2-yl)-aminoethyl)-phenyl-propionic acid]", "values": [{"measurement": "Affinity or potency at A1, rat (r), log", "setting": "A1 adenosine receptor; [7] Hutchison et al. (1989), rat brain, radioligand [3H]CHA", "result": "−5.5", "unit": "log mol/L"}, {"measurement": "Ki", "setting": "A1 adenosine receptor; read-out: Affinity or potency at A1, rat (r), [6] Maemoto et al. (1997), brain cortex, radioligand [3H]DPCPX", "result": 36.3, "unit": "µM"}]}
